# Binding of CDR-mutated scFvs to a peptide of the spike HR2 region

Data: MIT Lincoln Laboratory AlphaSeq set, Li et al. 2023, doi:10.1038/s41467-023-39022-2, as distributed in FLAb.

Target peptide (SARS-CoV-2 spike, HR2 region): PDVDLGDISGINAS

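The starting antibody came from a phage panning campaign against this peptide. This is the validation round: designs drawn from the data on random variants, tested in the same kind of assay. Group labels follow the data file (Ctrl: baseline library sampled from a position-specific scoring matrix, with some repeated check sequences; Rand: our label for a block that the file lists under HC and that is probably the random mutants of the ten best first-round binders; En: ensemble of fine-tuned language models; GP: Gaussian process model; HC: hill climbing; Gen: genetic algorithm; Gibbs: Gibbs sampling; a sequence that several methods proposed may carry one label only). Affinity was read by AlphaSeq, a pooled yeast mating assay with surface-displayed partners. Pairs that bind mate more often; barcode pairs of the diploids are counted by sequencing. Read counts were normalised to the haploid input and turned into Kd by a linear fit to BCL2-family pairs of known affinity, for each replicate. The assay was run in six technical replicates.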

Ab-14 is the parent antibody, in scFv form: VH, then the linker GGGGSGGGGSGGGGS, then VL. The heavy chain is unchanged in all variants.
VH: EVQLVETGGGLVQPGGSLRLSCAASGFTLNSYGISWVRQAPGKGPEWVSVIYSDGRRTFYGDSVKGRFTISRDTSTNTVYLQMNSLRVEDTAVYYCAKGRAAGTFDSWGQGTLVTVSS
VL: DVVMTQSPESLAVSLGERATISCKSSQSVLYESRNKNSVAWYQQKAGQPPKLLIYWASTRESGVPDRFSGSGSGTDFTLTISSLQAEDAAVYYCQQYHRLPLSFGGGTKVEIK

Variants are written as CDR1, CDR2 and CDR3 of the light chain (limits as in the source). Parent: KSSQSVLYESRNKNSVA, WASTRES, QQYHRLPLS. Affinities are written as log10 Kd with Kd in nM; a lower number is a better binder. Replicates are averaged; those with no signal do not enter the mean. A pair that was not seen in any replicate is written "nd"; this usually means weak binding, but a binder can also be missed. Entries are sorted by rising average, undetected variants last. Of ten entries with the parent sequence, four were seen in most replicates (averages 0.34 to 2.37), three in one and three in none, so single entries are noisy. A sequence measured in both rounds can read differently, since the two assays cover different ranges. As a blank, each scFv also met three strains without target: over all light chain designs, 4% of these pairings were detected, typically at 2.64 and seldom below 1.59. For each scFv, signals with the empty controls are counted beside the result. The authors averaged sequences with at least three values out of six and counted those with two or fewer as poor binders.

CDR-L1 | CDR-L2 | CDR-L3 | group | mean log10 Kd (nM) | seen in | signal with controls
KISQSVLYESRNKNNVA | EASTRES | QQYHRLPLS | GP_Gen | -0.47 | 6/6 | 2/18
KLQQSVLYESRNKNNVA | NASTRES | QQYHRLPLS | GP_Gen | -0.46 | 6/6 | 3/18
KLQQAELQESRNKNSVA | SASTRES | QQYHRLPLS | GP_Gibbs | -0.39 | 6/6 | 0/18
KLSQSDLYESRTKNSVA | NASTRES | QQYHRLPLS | GP_HC | -0.36 | 6/6 | 2/18
KLSQSYLYESRNPNSVA | NASTRES | QQYHRLPLS | GP_Gen | -0.33 | 6/6 | 0/18
KLQQSVPYESRNKNSVA | NASTRLS | QQYHRLPLS | GP_Gen | -0.26 | 6/6 | 0/18
KLSQSVDYESRNKNAVA | EASTRES | QQYHRLPLS | GP_Gen | -0.22 | 6/6 | 0/18
KFSQSVLYESRNKNSVA | GASTRCS | QQYHRLPLS | GP_Gen | -0.22 | 6/6 | 0/18
KVPQSFLYESRNKNSVA | NASTRES | QQYHRLPLS | GP_Gen | -0.21 | 6/6 | 0/18
KLSQSVLYESRNKNSVA | DASTRES | QSYHRLPLS | GP_Gen | -0.21 | 6/6 | 3/18
KLSQSWDYESRNKNNVA | NASTRES | QQYHRLPLS | GP_Gen | -0.20 | 6/6 | 0/18
KISQATRMESRNKASVA | ENSTRES | QQYFRLPLS | En_HC | -0.18 | 6/6 | 4/18
KSSQSVDQESRNKNSVA | DASTRES | QQYHRLPLS | GP_HC | -0.13 | 6/6 | 2/18
KSSQSVYYEDGNGNSVA | HASVRED | QQYHRLPLM | GP_Gibbs | -0.12 | 6/6 | 1/18
KLYQSQLYESRNKNSVA | NASTRLS | QQYHRLPLS | GP_Gen | -0.12 | 6/6 | 3/18
KLQQSELYESRNKNSVA | NASTRCS | QQYHRLPLS | GP_Gen | -0.11 | 6/6 | 1/18
MISGSVMSESRLKNSVA | QTTTREV | QQYDRLPLS | En_HC | -0.09 | 6/6 | 0/18
KFSQSVLYESRNKNSVA | DASQRES | QQYHRLPLS | GP_Gen | -0.01 | 6/6 | 1/18
HISDLIMVASRNKNSVA | DESMRPD | QQYHRLPLS | En_HC | 0.03 | 6/6 | 1/18
KMSQSVLYEDRNKNSVA | NASQRES | QQYHRLPLS | GP_Gen | 0.05 | 6/6 | 2/18
KVSQSVLYESRNKNSVA | NASTRES | QQYHRLPLT | GP_Gen | 0.05 | 6/6 | 2/18
KLTMISGLEKVSKNNVA | EMETRYE | QQYNRLPLS | En_Gen | 0.11 | 6/6 | 0/18
KLQQSHLYESRNKNSVA | DASTRLS | QQYHRLPLS | GP_Gen | 0.15 | 6/6 | 3/18
KQSQSVLYGERNSNSVA | NASYRLS | QQYHRLPLS | GP_Gibbs | 0.17 | 6/6 | 2/18
KSSISGLYESLMKNSVA | EASTRES | QQYHRLPLS | GP_HC | 0.19 | 6/6 | 1/18
TITGVMTQMSHSKNNVA | EVSTRLP | QQYFRLPLE | En_Gen | 0.19 | 6/6 | 2/18
KVVQSHDYEQRNKNSVA | HASTRCS | QQYHRLPLS | GP_Gibbs | 0.20 | 6/6 | 0/18
KSSGSVLYEDRMVNSVA | NASQRLE | QQYHRLPLS | GP_Gibbs | 0.26 | 6/6 | 1/18
RISAHVYDETNTQENVA | QEHIRAN | QQYSRLPLS | En_Gibbs | 0.28 | 6/6 | 0/18
TLTQVQGMESHNKNSVA | DLSTRGQ | QQYHRLPLS | En_HC | 0.33 | 6/6 | 0/18
KWSQLVLGEDRNKMSVA | NASQREE | QQYHRLPLS | GP_Gibbs | 0.35 | 6/6 | 1/18
KLSSSWLMEQRNVNSVA | QASTRLL | QQYHRLPLS | GP_Gibbs | 0.35 | 6/6 | 0/18
KASPSEEYESRNKNSVA | NASYRES | QQYHRLPLS | GP_Gibbs | 0.37 | 6/6 | 1/18
TISTTMRYESSLKNAIA | NAQTRES | QQYHRLPLS | En_HC | 0.37 | 6/6 | 1/18
HSSQSVLYESRNKNSVA | GASTRES | QQYHRLPLS | Ctrl | 0.38 | 6/6 | 2/18
KLSQITGHMSMSKNNVA | EMVTREN | QQYDRLPLS | En_Gen | 0.39 | 6/6 | 0/18
KISQMVRVGSTAANSIA | EEVTRAK | QQYHRLPLA | En_Gen | 0.46 | 6/6 | 0/18
QISLNGWDGEKKEYAVA | EGTKKDA | QQYSRLPLS | En_Gibbs | 0.62 | 6/6 | 0/18
KLSQSVGYQSRNKNSVA | HASQRED | QQYHRLPLS | GP_Gibbs | 0.65 | 6/6 | 2/18
QTTAFYEHGYDQQQAMA | DVTMRDQ | QQYERLPLS | En_Gibbs | 0.70 | 6/6 | 1/18
KVYWGVDYEDRNKNSVA | HASQRES | QQYHRLPLS | GP_Gibbs | 0.71 | 6/6 | 1/18
KIQLGLSRYNGDYSSVA | NETQKGD | QQYFQLPLG | En_Gibbs | 0.77 | 6/6 | 3/18
KSSQSVLYESREKNSVA | QASTRES | QQYHRLPLS | Ctrl | 0.84 | 6/6 | 0/18
KLGEATRFESSNKASIA | NNSTREE | QQYHRLPLS | En_HC | 0.85 | 6/6 | 2/18
KMETHSQDNRLDWSAIA | EAQTIYQ | QQYARLPLS | En_Gibbs | 0.90 | 3/6 | 1/18
RSSQSHLYESRNKNSVA | WASTRES | QQYSRLPLS | Ctrl | 0.90 | 6/6 | 0/18
SISGFMKSLSAHINSVA | DMTNRED | QQYDKLPLS | En_Gen | 0.92 | 6/6 | 0/18
NLNDGPMEQQIHMDAIA | QEAIRNA | QQYARLPLS | En_Gibbs | 0.93 | 6/6 | 0/18
KSSQSVLYESRNKNSVA | SASTRES | QQYHRLPLY | Ctrl | 0.96 | 6/6 | 0/18
KVDISQLLESRNKNSVA | NASLRCS | QQYHRLPLS | GP_Gibbs | 0.97 | 6/6 | 0/18
IVSQSVLDESRNKNSVA | DASTRES | QQYHRLPLS | GP_HC | 0.97 | 6/6 | 0/18
NLSIQHQHQNMSANAVA | QTEIREV | QQYAQLPLA | En_Gibbs | 1.10 | 6/6 | 0/18
QLGHYKHENMAKWQNVA | EMTIREK | QQYAHLPLA | En_Gibbs | 1.13 | 6/6 | 1/18
KISQNVLYESRNKNSVA | WASTRES | QQYHRLPIS | Ctrl | 1.31 | 5/6 | 0/18
HSSPSVLYESRNKNSVA | NAITAES | TQYHRLPLS | Rand | 1.33 | 1/6 | 1/18
MISQIYNMGSFAINSVA | QASLRNE | QQYDRLPLM | En_Gen | 1.50 | 6/6 | 0/18
NLSIEMSYYYENRYNIA | EMTVREY | QYYSRLPLA | En_Gibbs | 1.56 | 4/6 | 0/18
KSSQSVLYESSNFNSVA | WASTRES | QQYHRLPLS | Ctrl | 1.62 | 5/6 | 1/18
KSLQSVLYESRNKNSTA | HASTRED | QQYGRLPLS | Rand | 1.73 | 6/6 | 1/18
KSSQSVLYESGNKNSVA | WASTRES | QQYHREPLS | Ctrl | 1.84 | 1/6 | 0/18
ALALTLHQNESNQSNIA | QVMEREV | QQYYRLPLG | En_Gibbs | 1.87 | 1/6 | 1/18
KSSQSVLYESANKNSVA | KASTRHS | QQGHILPLS | Ctrl | 1.92 | 6/6 | 0/18
KSSQSVCYEVRNKNSVA | WASTRES | QQYHRLPLS | Ctrl | 2.04 | 1/6 | 0/18
KSSQHVLYESTNKNSVA | WSSTRES | QQYHRLPLS | Ctrl | 2.04 | 6/6 | 2/18
KVSEFMRGLMGRKDSIA | DNVTRNK | QQYDRLPLS | En_Gen | 2.06 | 6/6 | 0/18
KSSQSVLYENRNKNDVA | GASTRES | QQYHRLPLS | Ctrl | 2.11 | 1/6 | 0/18
KLRQSTPCESRNKNSVA | WASTRES | QQYHRLPLS | Rand | 2.16 | 2/6 | 1/18
KLYDEATNRVGTAENIA | EKEISLQ | QQYDRLPLS | En_Gibbs | 2.24 | 4/6 | 0/18
KSSQSVYMESRNHNSVA | WASTREG | QQYHRLPLS | Ctrl | 2.63 | 1/6 | 0/18
HISYSMNHLSKNKNSVA | NQQTRES | QQYHRLPLS | En_HC | 3.05 | 2/6 | 1/18
KSSHSVVYSSDNKNSVA | NASTRES | QFYHILGLY | Ctrl | 3.32 | 1/6 | 0/18
SMYPFEVAIGEGTNNVA | HVSVRAL | QQYFRLPLV | En_Gibbs | 3.62 | 1/6 | 0/18
TLYGLSNSMQKEKNNVA | EMSTREN | QQYDRLPLI | En_Gen | nd | 0/6 | 0/18
KSSQSLLYESRNKNSIA | WATTRES | PQYHRKPLS | Ctrl | nd | 0/6 | 0/18
KSSQSVLYESRNKNSVA | WASTRES | FQYHRLPLS | Ctrl | nd | 0/6 | 0/18
KLSMSVRMESFNKDNVA | ENSTREA | QDYHRLPLS | En_HC | nd | 0/6 | 0/18
KSSQSVLYELRNKNSVA | WASTRES | QQYHRLPLS | Ctrl | nd | 0/6 | 0/18